The subject of this assay is Dopamine transporter. Briefly: PubChem AID 652083. The following applies: CEREP radioligand binding panel, % inhibition at 10 uM, stronger effect = higher value.

SMILES strings stand for the structures. This is one part of the list. Active and inactive are the calls of the source.

As to `COC(=O)c1cc(Br)cnc1N1CCC(NC2CCCCC2)C(O)C1` (stereo unspecified), the inhibition of specific binding was inactive: 18%.
